The record followed here is patent US8461128B2, “Anti-microbial agents and uses thereof” (priority 2005, dated 2013).

This assay has as its system M. tuberculosis H37Rv. The assay is classed as cell-based, Mycobacterium tuberculosis.

Regarding `NNC(=O)c1ccncc1` [isoniazid, reference compound], the iron-deficient media selectivity entry was “do not exhibit iron-deficient media selectivity”.
